Test results taken from patent US20160311934A1, “HYDROXYALKYL STARCH DERIVATIVES AS REACTANTS FOR COUPLING TO THIOL GROUPS” (FRESENIUS KABI DEUTSCHLAND GMBH, priority 2013, published 2016).

Assay: Stability tests of HES-protein conjugates at different pH, 40° C., 20 days
Type: physicochemical
Conditions: protein conjugate 1 mg/ml
Description: For stability tests at pH 4.0, 5.5, 7.0 and 8.0, the conjugates were diluted into final buffer conditions of 20 mM acetate (pH 4.0 and 5.5) or 10 mM phosphate (pH 7.0 and 8.0), 0.5 mM ETDA, 154 mM NaCl to a final concentration of 1 mg/ml. The conjugates were stored at 40° C. for 20 days and analyzed by RP-HPLC (example for Ubi is shown in FIG. 3), SEC (as described in example C1) or SDS-PAGE (as described in example C1). The results obtained with different target molecules are given in Table 5 and in table 6 and FIGS. 4-6.

L12 X20 HSA
conjugate degradation after 20 days (%) pH 7.0 (10 mM phosphate pH 7.0, 40° C.): 5.9% | conjugate degradation after 20 days (%) pH 8.0 (10 mM phosphate pH 8.0, 40° C.): 10.5% | conjugate degradation after 20 days (%) pH 4.0 (20 mM acetate pH 4.0, 40° C.): 0.1% | conjugate degradation after 20 days (%) pH 5.5 (20 mM acetate pH 5.5, 40° C.): 1.3%
